Reference: ChEMBL document CHEMBL1614632, “Trend analysis of a database of intravenous pharmacokinetic parameters in humans for 670 drug compounds” (Drug Metab Dispos, 2008)

What was measured:
[1] = clinical
[2] = clinical; details: human, in vivo, iv, t1/2
[3] = clinical; remark: listed apart in the source
[4] = clinical; remark: listed apart in the source
[5] = clinical; remark: listed apart in the source

| SMILES | clearance [1] [mL/min/kg] | half-life [2] [h] | fraction unbound [3] | MRT [4] [h] | Vd [5] [L/kg] |
| --- | --- | --- | --- | --- | --- |
| CC(C)C[C@H](NC(=O)[C@H](Cc1ccccc1)NC(=O)c1cnccn1)B(O)O [BORTEZOMIB] | 19 | 18 | 0.17 | 8.8 |  |
| O=c1[nH]cc(F)c(=O)[nH]1 [FLUOROURACIL] |  | 0.12 |  | 0.15 |  |
| CNC(=O)c1c(I)c(NC(C)=O)c(I)c(C(=O)O)c1I [IOTHALAMIC ACID] |  |  | 0.98 |  |  |
| NC[C@H]1O[C@H](O[C@H]2[C@H](O)[C@@H](O[C@H]3O[C@H](CO)[C@@H](O)[C@H](N)[C@H]3O)[C@H](N)C[C@@H]2N)[C@H](O)[C@@H](O)[C@@H]1O [KANAMYCIN] |  |  | 0.99 |  |  |
| N#Cc1ccc(C(c2ccc(C#N)cc2)n2cncn2)cc1 [LETROZOLE] |  | 45 |  | 59 |  |
| Sc1ncnc2nc[nH]c12 [MERCAPTOPURINE ANHYDROUS] | 15 |  | 0.85 |  |  |
| CN(C)c1ccc(O)c2c1C[C@H]1C[C@H]3[C@H](N(C)C)C(O)=C(C(N)=O)C(=O)[C@@]3(O)C(O)=C1C2=O [MINOCYCLINE] | 1.2 | 17 |  | 22 | 1.6 |
| C[C@]12C=CC(=O)C=C1CC[C@@H]1[C@@H]2[C@@H](O)C[C@@]2(C)[C@H]1CC[C@]2(O)C(=O)CO [PREDNISOLONE] | 2.9 | 3.4 |  | 4.8 | 0.86 |
| CC(CN1c2ccccc2Sc2ccccc21)N(C)C (stereo unspecified) [PROMETHAZINE] |  | 14 |  | 17 |  |
| O=P(O)(O)C(O)(Cc1cccnc1)P(=O)(O)O [RISEDRONIC ACID] | 1.5 | 200 |  |  |  |
| Cn1nnc2c(C(N)=O)ncn2c1=O [TEMOZOLOMIDE] | 3.6 |  |  | 2.3 |  |
| CC[C@@]1(O)C(=O)OCc2c1cc1n(c2=O)Cc2cc3c(CN(C)C)c(O)ccc3nc2-1 [TOPOTECAN] |  | 2.3 |  | 2.3 |  |
| O=C(CCCCCCC(=O)Nc1ccccc1)NO [VORINOSTAT] | 28 | 0.76 |  |  |  |
| Cc1cn([C@H]2C[C@H](N=[N+]=[N-])[C@@H](CO)O2)c(=O)[nH]c1=O [ZIDOVUDINE] | 25 |  |  |  |  |
